Values quoted from earlier work, collected in patent US20220026411A1, “ANALYTICAL METHODS AND ARRAYS FOR USE IN THE SAME” (SENZAGEN AB, priority 2019, published 2022).

Conditions: training data set; as defined by available literature and expert consensus; cited from earlier work

ethylendiamine
Function in study: RS/SS
